Measured affinities in a library of Ab-14 heavy chain variants

From the AlphaSeq antibody data of Li et al. 2023 (doi:10.1038/s41467-023-39022-2), copy in the FLAb collection.

Target: peptide PDVDLGDISGINAS, taken from heptad repeat 2 (HR2) of SARS-CoV-2 spike.

Parent scFv Ab-14: VH joined to VL by the linker GGGGSGGGGSGGGGS. Changes lie in the heavy chain CDRs alone.
VH: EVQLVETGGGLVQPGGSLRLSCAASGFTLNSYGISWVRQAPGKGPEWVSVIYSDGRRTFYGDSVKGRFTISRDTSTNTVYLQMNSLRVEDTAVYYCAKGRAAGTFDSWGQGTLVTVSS
VL: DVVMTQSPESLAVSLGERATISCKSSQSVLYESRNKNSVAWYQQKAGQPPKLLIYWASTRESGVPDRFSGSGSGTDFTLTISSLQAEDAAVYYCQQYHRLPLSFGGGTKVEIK

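The parent was found by panning a naive human phage display library on the peptide. The variants were designed computationally from a first round of random CDR variants and then made and measured. Group labels follow the data file (En: ensemble of fine-tuned language models; HC: hill climbing; Gen: genetic algorithm; Gibbs: Gibbs sampling; a sequence that several methods proposed may carry one label only). The scFvs were displayed on barcoded MATa yeast, the peptide on MATalpha yeast. After mating in shaken culture at 30 °C for 16 h, diploids were selected and their barcode pairs sequenced. Read counts were normalised to the haploid input and turned into Kd by a linear fit to BCL2-family pairs of known affinity, for each replicate. There are six technical replicates.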

The parent's heavy chain CDRs are GFTLNSYGIS, VIYSDGRRTFYGDSVK, GRAAGTFDS; each variant's own CDRs replace them letter for letter. Variants here have more than six changes. Values are apparent Kd, the geometric mean of the replicates that gave a signal; lower means stronger binding. A pair that was not seen in any replicate is written "no signal"; this usually means weak binding, but a binder can also be missed. The authors averaged sequences with at least three values out of six and counted those with two or fewer as poor binders.

With GFDLEDYGIS | VIYADGMRTAYADSVK | GEVAGTFDI [En_Gen] the result was 320 pM (6 of 6 replicates). For GFDLNEYGIS | VIYADGRRTAYIDSVK | GEVAGSFDS [En_HC], the assay gave 540 pM (6 of 6 replicates). For GFQLDEYGIS | VIYADGSRTAYADSVK | GAYKFHLVV [En_Gibbs], the assay gave no signal (0 of 6 replicates). The variant GNTLNEYGIS | VIYADGIRTNYSDNVK | GMNGDTFTQ [En_Gibbs] showed no signal (0 of 6 replicates). The variant GFNLDEYGIS | VIYADGMRTAYGNAVK | GAVFGDLIS [En_Gibbs] showed no signal (0 of 6 replicates).

For GENINEYGIS | VIYADGRRTAYAEDVK | GQAGGIIDV [En_Gibbs], the assay gave 1.7 µM (1 of 6 replicates). For GFDLNEYGIS | VIYADGQRTFYKDSVK | GEAAGTFDQ [En_HC], the assay gave 4.2 nM (6 of 6 replicates). The variant GFDLNEYGIS | VIYADGMRTAYADSVK | GGTAGTFDV [En_Gen] showed 340 pM (6 of 6 replicates). The variant GQDLNEYGIS | VIYADGRRTMYANDVK | GHQGGIFED [En_Gibbs] gave no signal (0 of 6 replicates). For SFSLDDYGIS | VIYADGMRKAYVDEVK | GYVAGTFDE [En_Gibbs], the assay gave 1.7 nM (6 of 6 replicates).

The variant GFDLEEYGIS | VIYADGRRTFYADSVK | GENAGTFDI [En_HC] gave 1.0 nM (6 of 6 replicates). The variant GFDLNEYGIS | VIYADGQRTAYADSVK | GKVAGTFDE [En_HC] showed 260 pM (6 of 6 replicates). For GFDLDEYGIS | VIYADGMRTAYTDDVK | GNVAGTFDV [En_Gen], the assay gave 170 pM (6 of 6 replicates). With GFDLNEYGIS | VIYADGQRTAYADSVK | GKVAGTFDS [En_HC] the result was 170 pM (6 of 6 replicates). For GFDLNEYGIS | VIYADGRRTAYIDSVK | GNQAGTFDS [En_HC], the assay gave 430 pM (6 of 6 replicates).

For GFDLNEYGIS | VIYADGRRTFYADSVK | GQNAGTFDQ [En_HC], the assay gave 230 pM (6 of 6 replicates). With GFDLNEYGIS | VIYADGRRTAYIDSVK | GETAGTFDK [En_HC] the result was 990 pM (6 of 6 replicates). The variant GFDLNEYGIS | VIYADGMRTVYADSVK | GTNAGTFDL [En_Gen] showed 860 pM (6 of 6 replicates). With GFDLNEYGIS | VIYADGMRTAYADSVK | GNQAGTFDL [En_Gen] the result was 1.0 nM (5 of 6 replicates). The variant GFDLNEYGIS | VIYADGRRTFYADSVK | GEAGGTFDL [En_HC] showed 790 pM (6 of 6 replicates).

For GFDLNEYGIS | VIYADGMRTAYVDDVK | GNQAGTFDV [En_Gen], the assay gave 310 pM (6 of 6 replicates). With GFDLDEYGVS | VIYADGMRMAYQNDVK | GQKGNVFFM [En_Gibbs] the result was no signal (0 of 6 replicates). The variant GFQLDEYGIS | VIYADGVRSSYVDDVK | GEGTGAFSV [En_Gibbs] gave 9.9 nM (1 of 6 replicates). The variant GFDLNEYGIS | VIYADGQRTAYTDSVK | GNVAGTFDT [En_Gen] showed 640 pM (6 of 6 replicates). The variant GGELDEYGIS | VIYADGIRRQYVDNVK | GETADAFDM [En_Gibbs] showed no signal (0 of 6 replicates).

The variant GFDLDEYGIS | VIYADGMRTVYADSVK | GNQAGTFDI [En_Gen] gave 830 pM (6 of 6 replicates). For GFNLDEYGIS | VIYADGRRTGYQDKFK | GANNFSVMM [En_Gibbs], the assay gave no signal (0 of 6 replicates). The variant GFDLQEYGIS | VIYADGRRTFYTDSVK | GEVAGTFDS [En_HC] gave 1.1 nM (6 of 6 replicates). The variant GFDLNEYGIS | VIYADGRRTFYSDSVK | GEIAGTFDV [En_HC] showed 6.5 nM (5 of 6 replicates). For GFDLDEYGIS | VIYADGMRTAYADDVK | GNQAGTFDV [En_Gen], the assay gave 330 pM (6 of 6 replicates).

The variant GFDLNEYGIS | VIYADGRRTFYSDSVK | GSNGGTFDM [En_HC] showed 1.1 nM (6 of 6 replicates). With GFDLNEYGIS | VIYADGRRTFYIDSVK | GEIAGTFNL [En_HC] the result was 2.3 nM (6 of 6 replicates). The variant GFDIEDYGIS | VIYADGVRAMYKESVK | GGIAGTFLI [En_Gibbs] showed no signal (0 of 6 replicates). The variant GFDLDEYGIS | VIYADGKRTVYADSVK | GNNAGTFDV [En_Gen] gave 860 pM (6 of 6 replicates). With GFDLNEQGIS | VIYADGRRAATINQVK | GSNSFTFDL [En_Gibbs] the result was no signal (0 of 6 replicates).

The variant GFNLNEYGIS | VIYADGRRTFYADSVK | GQNAGTFIV [En_HC] gave no signal (0 of 6 replicates). The variant GFDLNEYGIS | VIYADGMRKVYADSVK | GNVAGTFDT [En_Gen] showed 1.5 nM (6 of 6 replicates). The variant GFNLDEYGIS | VIYADGRRTFYSDNVK | GEAAGTFDL [En_HC] gave 210 pM (6 of 6 replicates). For GFNLNEYGIS | VIYADGRRTFYADSVK | GEIAGTFDA [En_HC], the assay gave 210 pM (6 of 6 replicates). For GFDLDEYGIS | VIYADGRRTAYADNVK | GQVAGTFDV [En_Gen], the assay gave 1.1 nM (5 of 6 replicates).

With GEDLEEYGIS | VIYADGRRSAYADNVK | GMSGKFGMF [En_Gibbs] the result was no signal (0 of 6 replicates). For GKHLDEYGIS | VIYADGQRVQYADTVK | GIQGVNVDV [En_Gibbs], the assay gave no signal (0 of 6 replicates). With GFDLNEYGIS | VIYADGRRTFYIDSVK | GQNAGTFDV [En_HC] the result was 400 pM (6 of 6 replicates). For GFDIEDYGIS | VIYADGMRSSYSQSFK | GLQSGNISV [En_Gibbs], the assay gave no signal (0 of 6 replicates). For GFKLDEFGIS | VIYADGHRVAYSDKVK | GHNVDAFFV [En_Gibbs], the assay gave no signal (0 of 6 replicates).

The variant GFNLKEYGIS | VIYADGVRAQYAESVK | GTYSGKFGM [En_Gibbs] gave no signal (0 of 6 replicates). For GFEIDEYGIS | VIYADGIRTSYNDNVK | GQLGNAFDL [En_Gibbs], the assay gave 2.4 µM (2 of 6 replicates). The variant GFKLEAYGIS | VIYADGQRAAYVDKVK | GQHAGMFDQ [En_Gibbs] gave 66 nM (1 of 6 replicates). For GFKLDEYGIS | VIYADGHRVAYSNKVK | GDNVGNMFE [En_Gibbs], the assay gave 700 pM (6 of 6 replicates).

5 of these entries, quoted again:

CDR-H1	CDR-H2	CDR-H3	group	apparent Kd	replicates with signal
GEDLEEYGIS	VIYADGRRSAYADNVK	GMSGKFGMF	En_Gibbs	no signal	0 of 6
GFKLDEFGIS	VIYADGHRVAYSDKVK	GHNVDAFFV	En_Gibbs	no signal	0 of 6
GFNLDEYGIS	VIYADGRRTGYQDKFK	GANNFSVMM	En_Gibbs	no signal	0 of 6
GFDLNEYGIS	VIYADGMRTVYADSVK	GTNAGTFDL	En_Gen	860 pM	6 of 6
GFQLDEYGIS	VIYADGVRSSYVDDVK	GEGTGAFSV	En_Gibbs	9.9 nM	1 of 6

The parent sequence was in this pool as ten entries: three were never detected, three once, and four in most replicates, with averages from 2.2 nM to 240 nM. Values of this round are not directly comparable with the first-round values of the same sequences. As a blank, each scFv also met three strains without target: over all heavy chain designs, 1% of these pairings were detected, typically at 120 nM and seldom below 7.0 nM.